How the values were obtained:
[1] = tested on: ERBB2-positive breast cancers; settings: cited from earlier work
[2] = tested on: panel of 55 breast cancer cell lines; test: Cell growth inhibition assay (Cell Titer Glo, 72 h, 9 doses; GI50, TGI, LC50); type: cell-based, human; settings: across the cell line panel

Substance	clinical effect with co-administration of IL-12 ([1]; Phase I clinical trials, patients with HER2-overexpressing tumors)	patients achieving any therapeutic benefit ([1]; patients with ERBB2-positive breast cancers)	variability in cell line response [2]
trastuzumab	potentiated by the co-administration of IL-12	< 50%	
cetuximab			variability in cell line response was minimal
